AlphaSeq binding of Ab-95 light chain variants to a spike HR2 peptide

Target peptide (SARS-CoV-2 spike, HR2 region): PDVDLGDISGINAS

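The starting antibody came from a phage panning campaign against this peptide. AAYL52 was designed without a model: most single CDR substitutions and a random sample of double and triple ones. The assay is AlphaSeq: two haploid yeast populations carry antibody and antigen on their surface. Mating (16 h, 30 °C) was followed by selection of diploids and sequencing of their barcodes. The ratio of observed to expected reads was calibrated, replicate by replicate, on BCL2-family standards whose Kd was known from biolayer interferometry. Each pool was mated in three replicate cultures.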

Each scFv is VH, a 15-residue (Gly4Ser)3 linker, VL, as in the parent Ab-95, and differs from it in the CDRs of the light chain only.
VH: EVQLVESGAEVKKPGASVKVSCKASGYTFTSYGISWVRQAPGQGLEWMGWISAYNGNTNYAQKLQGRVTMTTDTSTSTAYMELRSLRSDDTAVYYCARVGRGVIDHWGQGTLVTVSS
VL: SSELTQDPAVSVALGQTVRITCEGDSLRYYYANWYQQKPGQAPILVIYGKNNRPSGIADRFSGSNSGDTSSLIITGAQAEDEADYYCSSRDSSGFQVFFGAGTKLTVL

The parent's light chain CDRs are EGDSLRYYYAN, GKNNRPS, SSRDSSGFQVF; each variant's own CDRs replace them letter for letter. Values are log10 of the apparent Kd in nM; lower means stronger binding. Where no diploid with the target was found in that replicate, the entry reads "nd": below detection, most likely a poor binder, though not proof of it. Nonspecific signal, from three strains lacking the peptide, appeared in 28% of pairings of library AAYL52, centred on 3.91 (5% of these signals below 2.90); values are not corrected for it. For each scFv, signals with the empty controls are counted beside the result.

4.94, nd, nd (controls 3 of 9): EGDSLHYYYVN, GKNNRPS, SSSDSSGFQVF.
nd, nd, nd (controls 2 of 9): EGDSERYYYAN, SKNNRPH, SSRDSSGFQVF.
3.29, nd, nd (controls 3 of 9): EGDSLRYYYAN, GKNNRPS, MSRDSQHFQVF.
nd, nd, nd (controls 2 of 9): EGDSLRYYYAL, GINNRPS, SSRDSSGFQVS.
3.89, 4.20, nd (controls 3 of 9): EGDSLRYYYAN, GYNNRPS, SIRDSSGFGVF.
1.63, 1.58, 0.50 (controls 1 of 9): ENDSLRKYYAN, GKNNRPV, SSRDSSGFQVF.
2.79, 5.33, 3.67 (controls 5 of 9): EGDNLRYYYAN, GKDNRPS, SSRDSSGFQVF.
2.66, 2.55, 2.22 (controls 5 of 9): EGDSLRYYYAN, GKNNRPG, SSRSSSGFQCF.
2.06, 2.02, 1.84 (controls 3 of 9): EDPSLRYSYAN, GKNNRPS, SSRDSSGFQVF.
4.06, nd, nd (controls 2 of 9): EGDSLRVYYQN, GKNNRPS, SSRDSSGFQVF.
2.66, 3.05, 2.86 (controls 5 of 9): EGDSLRYYYAN, GKNFRPS, SSRGSSGFQVF.
2.41, 2.70, 2.70 (controls 3 of 9): EGDSLRYNYAN, GKVNRYS, SSRDSSGFQVF.
2.95, 2.41, 2.24 (controls 4 of 9): EGDSLRYYYAN, GKNVRPS, SCRDSSGFQVQ.
3.88, nd, nd (controls 2 of 9): EGDSLRYYYAC, GKNHCPS, SSRDSSGFQVF.
nd, nd, nd (controls 1 of 9): EGDSLRYYYAN, GWNNRPS, ESRDSSGFQVV.
nd, nd, 4.16 (controls 2 of 9): EGDELRYYYAN, GKNNRPS, SSLDSHGFQVF.
2.71, 2.75, 2.04 (controls 2 of 9): EGDSLRYYYAN, GKHNRPS, SSRDSSGFENF.
4.31, 3.61, 3.57 (controls 3 of 9): EGDSLRYYYNN, GKNNWPS, SSRMSSGFQVF.
2.74, 2.63, 2.76 (controls 3 of 9): EGQSLRYYYSN, GKNNRMS, SSRDSSGFQVF.
3.14, 2.45, 1.83 (controls 3 of 9): EGDSLRYYYAN, NKNNRPS, SRRDSSGFQDF.
nd, nd, nd (controls 7 of 9): EGDSLRLYYAN, TKNNRPS, SSRDSSFFQVF.
2.62, 2.69, 3.18 (controls 4 of 9): EGDGLRYYYAN, GKNNRLS, FSRDSSGFQVF.
2.83, 2.35, 2.23 (controls 1 of 9): EGDSLRYYYAN, GKNNRPS, SSRDFSGMQMF.
3.75, 3.38, 1.97 (controls 3 of 9): EGDSLRYYYAN, GKNNRMS, SSRDVSGFQRF.
nd, 3.29, nd (controls 0 of 9): EGDVLRYYYAN, GKNNRPS, STRDSSGFQVT.
2.77, 2.83, 3.18 (controls 3 of 9): ESDSLRYYYAN, GKNNRPS, SSRDSSGFQVR.
3.10, 3.24, 2.91 (controls 3 of 9): ERDSLCYYYAN, GKNNRPS, SSRDPSGFQVF.
nd, 3.93, nd (controls 6 of 9): EGYSLRYYYCN, SKNNRPS, SSRDSSGFQVF.
2.95, 2.79, 3.51 (controls 6 of 9): EGDSLHYYYAN, GKNNRPS, SSRDSSFRQVF.
2.62, 3.02, 2.66 (controls 7 of 9): EGDSLRYYYAN, GKNNRPS, SSRDSSGREVE.
4.16, nd, nd (controls 1 of 9): EGDSLRYYYAN, ISNNRPS, SSRDSSGFQVF.
2.82, 2.63, 3.18 (controls 5 of 9): ERPSLRYYYAN, GKNWRPS, SSRDSSGFQVF.
2.32, 1.87, 1.48 (controls 0 of 9): EGDSLRYYYAN, GKNNRPS, ISRDSSCFQVF.
nd, 5.70, nd (controls 3 of 9): EGDSLRYCYAN, WKNNRPS, SSRDSSGGQVF.
4.14, nd, 3.00 (controls 1 of 9): EGDSLCNYYAN, GKNNRQS, SSRDSSGFQVF.

Picked from the list: the 5 lowest averages where every replicate gave a value.

CDR-L1,CDR-L2,CDR-L3,log10 Kd (nM) by replicate,empty controls
ENDSLRKYYAN,GKNNRPV,SSRDSSGFQVF,"1.63, 1.58, 0.50",1/9
EGDSLRYYYAN,GKNNRPS,ISRDSSCFQVF,"2.32, 1.87, 1.48",0/9
EDPSLRYSYAN,GKNNRPS,SSRDSSGFQVF,"2.06, 2.02, 1.84",3/9
EGDSLRYYYAN,GKNNRPS,SSRDFSGMQMF,"2.83, 2.35, 2.23",1/9
EGDSLRYYYAN,NKNNRPS,SRRDSSGFQDF,"3.14, 2.45, 1.83",3/9

Data: MIT Lincoln Laboratory AlphaSeq set, Engelhart et al. 2022, doi:10.1038/s41597-022-01779-4, as distributed in FLAb.